The values that follow come from patent publication US20240325363A1, “COMPOSITION FOR TREATMENT OF ANTICANCER AGENT-RESISTANT CANCER” (ONCOCROSS CO.,LTD., priority 2021, published 2024).

This test concerns HCT116 cells xenograft. The test is described as follows: HCT116 xenograft model in nude mice, tumor size. The test is classed as in vivo, Balb/c nude mice. To be noted: GW8510 10 mg/kg i.p. three times a week, cetuximab 1 mg/mouse i.p. once a week. From the text:
Experimental animals used were 36 6-week-old Balb/c nude mice. The experimental diet and drinking water were taken freely, and all experimental diets were stored in a refrigerator during a breeding period. The mice were pre-bred with regular feed to be adapted to a breeding environment for 7 days before the start of the experiment and then divided into a total of 4 groups. The 4 groups were divided into a control group (n=9), a gw8510 experimental group (n=9), a cetuximab experimental group (n=9), and a gw8510 and cetuximab combined experimental group (n=9). In all mice, HCT116 cells were injected with 1×10^6 S.C. at 7 weeks of age to prepare a xenograft model. When the tumor size reached 150 mm^3 in the prepared tumor transplant model, the mice were divided into GW8510 alone, cetuximab alone, and GW8510 and cetuximab combined treatment groups, respectively, and GW8510 was administered intraperitoneally at a concentration of 10 mg/kg three times a week, and cetuximab was administered intraperitoneally at a concentration of 1 mg/mouse once a week for a total of three times. The tumor size was measured using Equation of (long axis×short axis×short axis)/2 and measured three times a week at the same time.

As for cetuximab [reference compound], the tumor size entry was “not reduced”.
